≈ marks a conversion by molar mass, not a printed value.
Test system: P. aeruginosa NCTC 13437
Assay: microbe, parasite or virus in culture
Details: Pseudomonas aeruginosa, NCTC13437

SMILES	MIC [µg/mL]
COc1ccc2ccc(=O)n(CCCN3CC[C@@H]4[C@@H](C3)OC(=O)N4c3ccc4c(n3)NC(=O)CO4)c2n1 (relative stereo) [Compound 9, rel-1-{3-[(3aR*,7aR*)-2-oxo-1-{3-oxo-2H,3H,4H-pyrido[3,2-b][1,4]oxazin-6-yl}-octahydro-[1,3]oxazolo[5,4-c]pyridin-5-yl]propyl}-7-methoxy-1,2-dihydro-1,8-naphthyridin-2-one]	1 to 10 (≈ 1.97 to 19.7 µM)
COc1ccc2ccc(=O)n(CCCN3CC[C@H]4[C@@H](C3)OC(=O)N4c3ccc4c(n3)NC(=O)CO4)c2n1 (relative stereo) [Compound 7, rel-1-{3-[(3aR*,7aS*)-2-oxo-1-{3-oxo-2H,3H,4H-pyrido[3,2-b][1,4]oxazin-6-yl}-octahydro-[1,3]oxazolo[5,4-c]pyridin-5-yl]propyl}-7-methoxy-1,2-dihydro-1,8-naphthyridin-2-one]	1 to 10 (≈ 1.97 to 19.7 µM)
O=C1COc2ccc(N3C(=O)O[C@H]4CN(CCCn5c(=O)ccc6ccccc65)CC[C@H]43)nc2N1 (relative stereo) [Compound 2, rel-1-{3-[(3aR*,7aS*)-2-oxo-1-{3-oxo-2H,3H,4H-pyrido[3,2-b][1,4]oxazin-6-yl}-octahydro-[1,3]oxazolo[5,4-c]pyridin-5-yl]propyl}-1,2-dihydroquinolin-2-one]	10 to 100 (≈ 21 to 210 µM)
N#Cc1ccc2ccc(=O)n(CCCN3CC[C@@H]4[C@H](C3)OC(=O)N4c3ccc4c(n3)NC(=O)CO4)c2c1 (relative stereo) [Compound 6, rel-1-{3-[(3aR*,7aS*)-2-oxo-1-{3-oxo-2H,3H,4H-pyrido[3,2-b][1,4]oxazin-6-yl}-octahydro-[1,3]oxazolo[5,4-c]pyridin-5-yl]propyl}-2-oxo-1,2-dihydroquinoline-7-carbonitrile]	10 to 100 (≈ 20 to 200 µM)
N#Cc1ccc2ccc(=O)n(CCCN3CC[C@@H]4[C@@H](C3)OC(=O)N4c3ccc4c(n3)NC(=O)CO4)c2c1 (relative stereo) [Compound 10, rel-1-{3-[(3aR*,7aR*)-2-oxo-1-{3-oxo-2H,3H,4H-pyrido[3,2-b][1,4]oxazin-6-yl}-octahydro-[1,3]oxazolo[5,4-c]pyridin-5-yl]propyl}-2-oxo-1,2-dihydroquinoline-7-carbonitrile]	1 to 10 (≈ 2 to 20 µM)
